From ChEMBL document CHEMBL1122788, “Quantitative relationships between alpha-adrenergic activity and binding affinity of alpha-adrenoceptor agonists and antagonists” (J Med Chem, 1984)

Sequences of proteins named here, by UniProt entry; tags and fusion partners are left off. A change or cut given only in a name is not applied to a line headed by its entry.
UniProt P22086: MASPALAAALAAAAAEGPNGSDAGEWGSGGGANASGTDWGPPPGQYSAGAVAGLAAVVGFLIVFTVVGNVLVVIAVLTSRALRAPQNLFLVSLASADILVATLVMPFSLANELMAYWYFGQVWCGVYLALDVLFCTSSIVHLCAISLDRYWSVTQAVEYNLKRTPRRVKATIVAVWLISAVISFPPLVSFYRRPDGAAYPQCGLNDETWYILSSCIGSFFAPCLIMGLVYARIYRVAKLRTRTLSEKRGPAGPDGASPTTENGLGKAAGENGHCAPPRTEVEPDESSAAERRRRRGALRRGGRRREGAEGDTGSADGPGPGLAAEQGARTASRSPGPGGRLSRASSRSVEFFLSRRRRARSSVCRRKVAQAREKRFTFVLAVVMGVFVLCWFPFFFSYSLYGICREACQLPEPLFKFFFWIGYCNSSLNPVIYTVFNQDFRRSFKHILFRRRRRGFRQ
UniProt P19328: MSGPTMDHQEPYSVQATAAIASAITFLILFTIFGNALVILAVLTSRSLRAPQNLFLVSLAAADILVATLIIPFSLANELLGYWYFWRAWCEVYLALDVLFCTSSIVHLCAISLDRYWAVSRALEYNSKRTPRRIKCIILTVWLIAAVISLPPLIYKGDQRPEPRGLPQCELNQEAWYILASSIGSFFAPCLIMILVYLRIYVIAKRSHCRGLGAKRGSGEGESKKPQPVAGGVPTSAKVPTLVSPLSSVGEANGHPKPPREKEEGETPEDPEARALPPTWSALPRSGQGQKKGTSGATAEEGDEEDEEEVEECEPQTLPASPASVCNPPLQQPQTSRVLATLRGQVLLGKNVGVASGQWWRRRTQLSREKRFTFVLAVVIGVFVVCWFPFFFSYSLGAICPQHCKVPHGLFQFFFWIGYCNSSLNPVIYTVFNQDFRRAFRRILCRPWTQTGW
UniProt P22909: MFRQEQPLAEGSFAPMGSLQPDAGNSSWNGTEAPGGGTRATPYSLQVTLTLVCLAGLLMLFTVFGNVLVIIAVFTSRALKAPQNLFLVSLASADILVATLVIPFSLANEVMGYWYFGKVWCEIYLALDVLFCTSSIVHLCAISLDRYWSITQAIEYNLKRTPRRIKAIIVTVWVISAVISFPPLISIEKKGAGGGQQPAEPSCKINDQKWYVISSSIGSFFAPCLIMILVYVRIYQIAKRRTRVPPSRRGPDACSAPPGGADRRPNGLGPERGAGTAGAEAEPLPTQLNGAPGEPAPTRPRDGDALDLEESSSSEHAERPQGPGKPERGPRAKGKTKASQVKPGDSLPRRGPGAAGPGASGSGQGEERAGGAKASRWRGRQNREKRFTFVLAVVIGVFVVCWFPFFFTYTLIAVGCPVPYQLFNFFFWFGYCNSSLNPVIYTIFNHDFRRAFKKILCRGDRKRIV
UniProt P15823: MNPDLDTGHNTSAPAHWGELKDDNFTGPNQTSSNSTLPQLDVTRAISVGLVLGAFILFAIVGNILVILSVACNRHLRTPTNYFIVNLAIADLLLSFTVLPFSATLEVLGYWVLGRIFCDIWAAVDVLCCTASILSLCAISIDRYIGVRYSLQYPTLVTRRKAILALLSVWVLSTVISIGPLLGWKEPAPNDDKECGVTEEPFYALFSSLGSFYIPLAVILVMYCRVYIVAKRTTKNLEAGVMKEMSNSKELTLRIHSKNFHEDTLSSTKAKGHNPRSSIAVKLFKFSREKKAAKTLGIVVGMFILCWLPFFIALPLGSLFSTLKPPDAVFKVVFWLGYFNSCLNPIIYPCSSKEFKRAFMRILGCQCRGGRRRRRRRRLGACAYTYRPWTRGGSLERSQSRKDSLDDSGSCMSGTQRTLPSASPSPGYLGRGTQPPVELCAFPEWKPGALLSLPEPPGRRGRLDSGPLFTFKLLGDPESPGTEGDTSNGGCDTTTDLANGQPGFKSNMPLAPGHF
UniProt P23944: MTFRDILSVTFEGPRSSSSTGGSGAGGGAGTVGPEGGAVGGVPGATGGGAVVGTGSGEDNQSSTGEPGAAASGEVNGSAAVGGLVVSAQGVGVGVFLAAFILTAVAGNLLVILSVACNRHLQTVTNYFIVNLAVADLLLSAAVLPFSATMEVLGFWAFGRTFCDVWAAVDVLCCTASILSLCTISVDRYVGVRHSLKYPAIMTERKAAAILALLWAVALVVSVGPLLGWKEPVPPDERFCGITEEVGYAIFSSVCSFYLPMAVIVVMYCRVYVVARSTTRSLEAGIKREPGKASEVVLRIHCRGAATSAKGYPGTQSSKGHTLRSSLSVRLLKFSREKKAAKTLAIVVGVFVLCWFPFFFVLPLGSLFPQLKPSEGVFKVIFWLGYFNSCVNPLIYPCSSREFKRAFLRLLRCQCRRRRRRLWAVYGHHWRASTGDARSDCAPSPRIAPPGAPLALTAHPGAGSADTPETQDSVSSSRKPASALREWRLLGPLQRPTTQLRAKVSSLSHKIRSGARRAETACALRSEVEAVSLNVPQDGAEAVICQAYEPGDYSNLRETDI
UniProt P43140: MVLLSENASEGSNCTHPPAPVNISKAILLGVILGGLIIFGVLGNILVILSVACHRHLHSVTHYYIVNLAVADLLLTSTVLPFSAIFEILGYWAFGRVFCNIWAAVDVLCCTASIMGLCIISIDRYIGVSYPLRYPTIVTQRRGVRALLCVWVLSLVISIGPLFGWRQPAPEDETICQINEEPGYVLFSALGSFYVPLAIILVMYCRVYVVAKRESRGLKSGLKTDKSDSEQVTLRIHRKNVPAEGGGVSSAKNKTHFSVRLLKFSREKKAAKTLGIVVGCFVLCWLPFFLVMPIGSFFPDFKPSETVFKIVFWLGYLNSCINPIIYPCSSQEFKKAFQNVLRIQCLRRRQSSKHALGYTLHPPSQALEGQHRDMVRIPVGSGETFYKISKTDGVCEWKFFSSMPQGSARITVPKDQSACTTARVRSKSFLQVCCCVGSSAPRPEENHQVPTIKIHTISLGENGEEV

Columns and labels:
[1] = target: Adrenergic receptor alpha-2 (Rattus norvegicus, UniProt P22086+P19328+P22909); assay: Binding affinity against Alpha-2 adrenergic receptor is the ability to inhibit the specific [3H]clonidine binding (0.4 nM) to rat isolated brain membranes by 50% was reported; 2.3*10e-8; assay type: tissue-based, Membrane
[2] = target: Adrenergic receptor alpha-1 (Rattus norvegicus, UniProt P15823+P23944+P43140); assay: Binding affinity against alpha-1 adrenergic receptor is the ability to inhibit the specific [3H]prazosin binding (0.2 nM) to rat isolated brain membranes by 50% was reported.

IC50 [2] | SMILES | IC50 [1]
 | Cc1cc(C(C)(C)C)cc(C)c1CC1=NCCN1 [XYLOMETAZOLINE] | 23 nM
1200 nM | Clc1cccc(Cl)c1NC1=NCCN1 [CLONIDINE] | 
